Test results reported in ChEMBL document CHEMBL5537130, “Structure-based design of potent FABP4 inhibitors with high selectivity against FABP3” (Eur J Med Chem, 2024).

Tests used:
[1] = Metabolic stability in human hepatocyte assessed as intrinsic clearance; type: ADME, cell-based; conditions: hepatocytes, 1 h, 1 µM, time 60 min
THP-1 = assay: Cytotoxicity against human THP-1 cells assessed as reduction in cell viability upto 100 uM incubated for 24 hrs by CCK-8 assay; type: toxicity, cell-based; conditions: thp-1, 24 h
[2] = Metabolic stability in mouse hepatocyte assessed as intrinsic clearance; type: ADME, cell-based; conditions: hepatocytes, 1 h, 1 µM, time 60 min

CLH [1] [mL/min]	CLH [2] [mL/min]	SMILES	Activity (THP-1)
591	0.8	Cc1cccc(Nc2cccc(Cl)c2-c2ccccc2)c1C(=O)O	Non-Toxic
1228	0.69	Cc1cccc(Nc2cccc(Cl)c2-c2ccc3c(c2)CCO3)c1C(=O)O	
